Measured values: US20250314869A1

By UniProt entry, the sequences of proteins in these tests, tags left out.
UniProt P03372, whole entry: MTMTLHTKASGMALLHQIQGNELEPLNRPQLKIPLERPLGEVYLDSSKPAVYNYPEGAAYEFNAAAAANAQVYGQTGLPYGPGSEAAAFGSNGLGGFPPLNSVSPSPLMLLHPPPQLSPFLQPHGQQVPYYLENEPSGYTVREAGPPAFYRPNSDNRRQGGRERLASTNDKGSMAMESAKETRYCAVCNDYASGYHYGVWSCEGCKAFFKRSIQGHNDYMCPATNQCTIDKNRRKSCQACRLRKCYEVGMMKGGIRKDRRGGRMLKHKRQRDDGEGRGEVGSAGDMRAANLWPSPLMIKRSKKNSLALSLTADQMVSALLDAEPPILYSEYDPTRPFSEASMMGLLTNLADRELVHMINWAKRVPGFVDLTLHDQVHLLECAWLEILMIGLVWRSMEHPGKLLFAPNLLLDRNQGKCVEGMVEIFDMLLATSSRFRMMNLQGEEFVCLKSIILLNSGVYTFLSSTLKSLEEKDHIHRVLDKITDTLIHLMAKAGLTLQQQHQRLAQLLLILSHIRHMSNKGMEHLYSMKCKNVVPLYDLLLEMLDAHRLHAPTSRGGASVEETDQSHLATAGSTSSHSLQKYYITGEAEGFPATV

Key:
Estrogen Receptor (ER) = molecular target: T1, Estrogen Receptor (ER) (Homo sapiens, UniProt P03372); test: residence time imaging of ER-Halo (track length); type: cell-based; conditions: track length distribution versus DMSO or other ER modulators
T1 construct: expressed in transfected cells

[1] = molecular target: T2, progesterone receptor (PR) (Homo sapiens, UniProt P06401); test: htSMT of Halo-PR in U2OS cells; type: cell-based; conditions: 1 μM antagonist in absence or presence of cognate agonist
T2 construct: expressed in transfected cells
T2 sequence (P06401 1-933): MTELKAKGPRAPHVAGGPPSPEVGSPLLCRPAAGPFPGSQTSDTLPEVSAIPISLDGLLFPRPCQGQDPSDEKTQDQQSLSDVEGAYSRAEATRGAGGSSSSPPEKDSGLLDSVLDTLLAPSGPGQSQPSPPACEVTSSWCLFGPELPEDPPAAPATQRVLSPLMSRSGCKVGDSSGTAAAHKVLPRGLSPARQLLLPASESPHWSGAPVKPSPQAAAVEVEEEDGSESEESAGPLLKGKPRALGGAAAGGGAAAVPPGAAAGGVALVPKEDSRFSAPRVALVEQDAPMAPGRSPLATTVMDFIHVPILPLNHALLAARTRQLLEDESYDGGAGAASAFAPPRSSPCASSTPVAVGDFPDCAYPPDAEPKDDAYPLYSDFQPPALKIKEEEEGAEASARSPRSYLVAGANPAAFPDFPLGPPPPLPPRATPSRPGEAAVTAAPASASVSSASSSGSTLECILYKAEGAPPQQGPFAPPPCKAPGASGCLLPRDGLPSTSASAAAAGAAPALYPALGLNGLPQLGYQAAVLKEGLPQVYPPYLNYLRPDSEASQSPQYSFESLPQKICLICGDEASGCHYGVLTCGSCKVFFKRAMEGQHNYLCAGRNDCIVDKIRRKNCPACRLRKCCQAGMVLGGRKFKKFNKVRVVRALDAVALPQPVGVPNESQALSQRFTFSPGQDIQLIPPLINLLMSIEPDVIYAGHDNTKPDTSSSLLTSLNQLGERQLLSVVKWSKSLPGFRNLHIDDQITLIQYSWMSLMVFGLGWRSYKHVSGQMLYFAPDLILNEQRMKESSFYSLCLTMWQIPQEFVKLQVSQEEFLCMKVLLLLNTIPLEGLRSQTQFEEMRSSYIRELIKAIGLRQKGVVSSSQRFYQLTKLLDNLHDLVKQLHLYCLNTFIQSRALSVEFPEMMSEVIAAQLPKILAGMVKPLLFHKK

SMILES	ER binding (residence) times on chromatin (Estrogen Receptor (ER))	PR fbound / chromatin binding [1]
C[C@]12CC[C@@H]3c4ccc(O)cc4C[C@@H](CCCCCCCCC[S+]([O-])CCCC(F)(F)C(F)(F)F)[C@H]3[C@@H]1CC[C@@H]2O (some centres unmarked)	longer binding times	
CC#C[C@]1(O)CC[C@H]2[C@@H]3CCC4=CC(=O)CCC4=C3[C@@H](c3ccc(N(C)C)cc3)C[C@@]21C [mifepristone]		behaves similarly to ER antagonists
